From patent US20190216956A1, “COMPOSITIONS FOR RADIOTHERAPY AND USES THEREOF” (priority 2016, published 2019)

Test system: NCI-28H cells
Experiment: Cytotoxicity assay (MTS) of NCI-28H cells: carboplatin, mitomycin, gemcitabine, talc, talc bound to drugs (Example 22)
Settings: 72 hrs

**Q.** How did the “cytotoxic effect on NCI-28H cells (comparison)” value turn out when `CO[C@@]12[C@H](COC(N)=O)C3=C(C(=O)C(C)=C(N)C3=O)N1C[C@@H]1N[C@@H]12` [mitomycin] was run?
**A.** Its value is “clear cytotoxic effect”.
